Reference: US20070191462A1, “Combination of A 5-HT(1) Receptor Agonist and an Alpha-2-Delta Ligand for the Treatment of Migraine” (Pfizer Limited, priority 2004, published 2007)

Test system: 2nd sensory neuron in the trigeminal nucleus caudalis (TNC)
Experiment: rat model of migraine: sensitization induced by inflammatory soup applied to the dura, monitored by electrophysiology in the TNC
Assay type: in vivo
Details: pregabalin 30 mg/kg given 3 hours after inflammatory soup; 4.5 hour time point; not consistent among animals, large variability

CC(C)C[C@H](CN)CC(=O)O [pregabalin, (S)-(+)-4-amino-3-(2-methylpropyl)butanoic acid]
reversal of sensitization of responses to sensory stimuli (brush and pin): moderately reversed the sensitization
